Experimental data as given in PMC8150020, “Studying the suitability of hybrid micelle liquid chromatography for estimating the lipophilicity of some partial dopamine agonists used to attain the reward circuit” (Royal Society Open Science, 2021).

Assays:
[1] = experimental determination of log Pm/w using HMLC; assay type: physicochemical; details: for experimental log Pm/w HMLC: 0.18 M SDS, 10% acetonitrile, 0.3% TEA, pH 6, column 40°C
[2] = set-up: method as in earlier work; details: cited from earlier work

Structure (SMILES)	experimental log Pm/w HMLC [1]	experimental log Pm/w, column temperature 40°C ([1]; HMLC, pH 6, 40°C)	chromatographic logP ([1]; HMLC, pH 5, 40°C, read-out: log P (experimental log Pm/w) pH 5)	experimental log Pm/w, column temperature 35°C ([1]; HMLC, pH 6, 35°C)	chromatographic logP ([1]; HMLC, pH 6, 40°C, read-out: log P (experimental log Pm/w) pH 6)	reported log P [2]
CCCN[C@H]1CCc2nc(N)sc2C1 (racemic) [PRM, (RS)-4,5,6,7-tetrahydro-N-6-propyl-2,6-benzothiazolediamine dihydrochloride monohydrate]	2.323	2.323				
O=C1CCc2ccc(OCCCCN3CCN(c4cccc(Cl)c4Cl)CC3)cc2N1 [ARP, 7-[4-[4-(2,3-dichlorophenyl)piperazin-1-yl]butoxy]-3,4-dihydro-1H-quinolin-2-one]	4.729	4.729	4.62	4.46	4.73	4.6

Structures can show the parent of a compound that is named as a salt. Where two headings read alike, the source gives them in different places.
